## Membrane permeability of cyclic peptides

Collected by the curators of CycPeptMPDB (Li et al. 2023) from Kelly et al. 2021, doi:10.1021/jacs.0c06115.

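The data file gives no further conditions (lipid, pH, time, direction or concentration), and values from different papers need not be comparable. Other peptides of the study may be missing here. Peptides that the database sets to -10, its floor, are left out.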

PAMPA is the parallel artificial membrane permeability assay, which has no cells and reads passive diffusion. P is given in units of 10^-6 cm/s (from log10 values with two decimals); larger means faster passage.

PAMPA (10^-6 cm/s),SMILES
2.1,CC(=O)N1CCC[C@H]1C(=O)N[C@@H]1C(=O)N[C@H](CC(C)C)C(=O)N[C@H](CC(C)C)C(=O)N[C@H](CC(C)C)C(=O)N(C)[C@H](CC(C)C)C(=O)N(C)[C@@H](C)C(=O)N[C@@H](CC(C)C)C(=O)N2CCC[C@@H]2C(=O)O[C@@H]1C
0.25,CC(=O)N1CCC[C@@H]1C(=O)N(C)[C@@H](CC(C)C)C(=O)N[C@@H]1C(=O)N[C@@H](CC(C)C)C(=O)N[C@@H](CC(C)C)C(=O)N[C@@H](CC(C)C)C(=O)N[C@@H](C)C(=O)N[C@@H](CC(C)C)C(=O)N2CCC[C@H]2C(=O)O[C@@H]1C
1.4,CC(=O)N1CCC[C@@H]1C(=O)N(C)[C@@H](CC(C)C)C(=O)N[C@@H]1C(=O)N[C@H](CC(C)C)C(=O)N(C)[C@H](CC(C)C)C(=O)N[C@H](CC(C)C)C(=O)N[C@@H](C)C(=O)N[C@@H](CC(C)C)C(=O)N2CCC[C@H]2C(=O)O[C@@H]1C
3.3,CC(=O)N1CCC[C@@H]1C(=O)N(C)[C@@H](CC(C)C)C(=O)N[C@@H]1C(=O)N[C@H](CC(C)C)C(=O)N(C)[C@H](CC(C)C)C(=O)N[C@H](CC(C)C)C(=O)N(C)[C@@H](C)C(=O)N[C@H](CC(C)C)C(=O)N2CCC[C@H]2C(=O)O[C@@H]1C
2,CC(=O)N1CCC[C@@H]1C(=O)N(C)[C@H](CC(C)C)C(=O)N[C@@H]1C(=O)N[C@@H](CC(C)C)C(=O)N[C@H](CC(C)C)C(=O)N(C)[C@@H](CC(C)C)C(=O)N(C)[C@@H](C)C(=O)N[C@H](CC(C)C)C(=O)N2CCC[C@@H]2C(=O)O[C@@H]1C
0.89,CC(=O)N1CCC[C@@H]1C(=O)N(C)[C@H](CC(C)C)C(=O)N[C@@H]1C(=O)N(C)[C@@H](CC(C)C)C(=O)N(C)[C@@H](CC(C)C)C(=O)N(C)[C@H](CC(C)C)C(=O)N(C)[C@@H](C)C(=O)N[C@H](CC(C)C)C(=O)N2CCC[C@H]2C(=O)O[C@@H]1C
0.25,CC(=O)N1CCC[C@H]1C(=O)N(C)[C@H](CC(C)C)C(=O)N[C@@H]1C(=O)N[C@@H](CC(C)C)C(=O)N[C@H](CC(C)C)C(=O)N(C)[C@H](CC(C)C)C(=O)N(C)[C@H](C)C(=O)N[C@@H](CC(C)C)C(=O)N2CCC[C@@H]2C(=O)O[C@@H]1C
0.63,CC(=O)N1CCC[C@H]1C(=O)N(C)[C@H](CC(C)C)C(=O)N[C@@H]1C(=O)N(C)[C@H](CC(C)C)C(=O)N[C@H](CC(C)C)C(=O)N[C@H](CC(C)C)C(=O)N[C@H](C)C(=O)N[C@H](CC(C)C)C(=O)N2CCC[C@H]2C(=O)O[C@@H]1C
1.3,CC(=O)N1CCC[C@H]1C(=O)N[C@@H]1C(=O)N(C)[C@H](CC(C)C)C(=O)N[C@H](CC(C)C)C(=O)N[C@@H](CC(C)C)C(=O)N(C)[C@H](CC(C)C)C(=O)N(C)[C@H](C)C(=O)N[C@@H](CC(C)C)C(=O)N2CCC[C@@H]2C(=O)O[C@@H]1C
0.39,CC(=O)N1CCC[C@H]1C(=O)N(C)[C@@H](CC(C)C)C(=O)N[C@@H]1C(=O)N[C@H](CC(C)C)C(=O)N[C@@H](CC(C)C)C(=O)N(C)[C@H](CC(C)C)C(=O)N[C@H](C)C(=O)N[C@H](CC(C)C)C(=O)N2CCC[C@@H]2C(=O)O[C@@H]1C
1.5,CC(=O)N1CCC[C@H]1C(=O)N(C)[C@@H](CC(C)C)C(=O)N[C@@H]1C(=O)N[C@@H](CC(C)C)C(=O)N(C)[C@H](CC(C)C)C(=O)N(C)[C@@H](CC(C)C)C(=O)N(C)[C@H](C)C(=O)N[C@H](CC(C)C)C(=O)N2CCC[C@H]2C(=O)O[C@@H]1C
0.28,CC(=O)N[C@@H]1C(=O)N2CCC[C@H]2C(=O)N(C)[C@H](CC(C)C)C(=O)N[C@@H](CC(C)C)C(=O)N[C@@H](CC(C)C)C(=O)N[C@@H](CC(C)C)C(=O)N(C)[C@@H](C)C(=O)N[C@@H](CC(C)C)C(=O)N2CCC[C@@H]2C(=O)O[C@@H]1C
1.7,CC(=O)N1CCC[C@H]1C(=O)N[C@@H]1C(=O)N(C)[C@H](CC(C)C)C(=O)N[C@H](CC(C)C)C(=O)N[C@@H](CC(C)C)C(=O)N(C)[C@@H](CC(C)C)C(=O)N(C)[C@H](C)C(=O)N[C@@H](CC(C)C)C(=O)N2CCC[C@@H]2C(=O)O[C@@H]1C
0.39,CC(=O)N1CCC[C@@H]1C(=O)N(C)[C@H](CC(C)C)C(=O)N[C@@H]1C(=O)N[C@@H](CC(C)C)C(=O)N[C@@H](CC(C)C)C(=O)N(C)[C@@H](CC(C)C)C(=O)N(C)[C@H](C)C(=O)N[C@@H](CC(C)C)C(=O)N2CCC[C@@H]2C(=O)O[C@@H]1C
0.17,CC(=O)N1CCC[C@H]1C(=O)N(C)[C@@H](CC(C)C)C(=O)N[C@@H]1C(=O)N(C)[C@@H](CC(C)C)C(=O)N(C)[C@@H](CC(C)C)C(=O)N[C@H](CC(C)C)C(=O)N(C)[C@H](C)C(=O)N[C@H](CC(C)C)C(=O)N2CCC[C@H]2C(=O)O[C@@H]1C
4.9,CC(=O)N1CCC[C@@H]1C(=O)N(C)[C@@H](CC(C)C)C(=O)N[C@@H]1C(=O)N(C)[C@@H](CC(C)C)C(=O)N(C)[C@H](CC(C)C)C(=O)N(C)[C@H](CC(C)C)C(=O)N(C)[C@H](C)C(=O)N[C@H](CC(C)C)C(=O)N2CCC[C@H]2C(=O)O[C@@H]1C
5.6,CC(=O)N1CCC[C@H]1C(=O)N(C)[C@H](CC(C)C)C(=O)N[C@@H]1C(=O)N(C)[C@@H](CC(C)C)C(=O)N(C)[C@H](CC(C)C)C(=O)N(C)[C@H](CC(C)C)C(=O)N(C)[C@@H](C)C(=O)N[C@H](CC(C)C)C(=O)N2CCC[C@H]2C(=O)O[C@@H]1C
0.34,CC(=O)N1CCC[C@@H]1C(=O)N(C)[C@H](CC(C)C)C(=O)N[C@@H]1C(=O)N(C)[C@@H](CC(C)C)C(=O)N(C)[C@@H](CC(C)C)C(=O)N[C@H](CC(C)C)C(=O)N[C@H](C)C(=O)N[C@H](CC(C)C)C(=O)N2CCC[C@H]2C(=O)O[C@@H]1C

Again, the 2 entries with the lowest PAMPA:

SMILES,PAMPA (10^-6 cm/s)
CC(=O)N1CCC[C@H]1C(=O)N(C)[C@@H](CC(C)C)C(=O)N[C@@H]1C(=O)N(C)[C@@H](CC(C)C)C(=O)N(C)[C@@H](CC(C)C)C(=O)N[C@H](CC(C)C)C(=O)N(C)[C@H](C)C(=O)N[C@H](CC(C)C)C(=O)N2CCC[C@H]2C(=O)O[C@@H]1C,0.17
CC(=O)N1CCC[C@H]1C(=O)N(C)[C@H](CC(C)C)C(=O)N[C@@H]1C(=O)N[C@@H](CC(C)C)C(=O)N[C@H](CC(C)C)C(=O)N(C)[C@H](CC(C)C)C(=O)N(C)[C@H](C)C(=O)N[C@@H](CC(C)C)C(=O)N2CCC[C@@H]2C(=O)O[C@@H]1C,0.25